Assay results as given in patent US5595763A (priority 1995, dated 1997).

System: male Wistar rats

sodium vanadate [reference compound]
symptoms at high doses (high doses, tungstate up to 8000 mg/kg): diarrhea, convulsions, and blood in the feces | LD50 (oral (intragastric) single dose, Wistar rats, ten days, method of Horn, 14400 min): 98 mg/kg
